Test results published in paper PMC6423038, “Deferiprone: Pan-selective Histone Lysine Demethylase Inhibition Activity and Structure Activity Relationship Study” (Scientific Reports, 2019).

Sequences of proteins named here, by UniProt entry; tags and fusion partners are left off.
UniProt O15550, whole entry, looked up: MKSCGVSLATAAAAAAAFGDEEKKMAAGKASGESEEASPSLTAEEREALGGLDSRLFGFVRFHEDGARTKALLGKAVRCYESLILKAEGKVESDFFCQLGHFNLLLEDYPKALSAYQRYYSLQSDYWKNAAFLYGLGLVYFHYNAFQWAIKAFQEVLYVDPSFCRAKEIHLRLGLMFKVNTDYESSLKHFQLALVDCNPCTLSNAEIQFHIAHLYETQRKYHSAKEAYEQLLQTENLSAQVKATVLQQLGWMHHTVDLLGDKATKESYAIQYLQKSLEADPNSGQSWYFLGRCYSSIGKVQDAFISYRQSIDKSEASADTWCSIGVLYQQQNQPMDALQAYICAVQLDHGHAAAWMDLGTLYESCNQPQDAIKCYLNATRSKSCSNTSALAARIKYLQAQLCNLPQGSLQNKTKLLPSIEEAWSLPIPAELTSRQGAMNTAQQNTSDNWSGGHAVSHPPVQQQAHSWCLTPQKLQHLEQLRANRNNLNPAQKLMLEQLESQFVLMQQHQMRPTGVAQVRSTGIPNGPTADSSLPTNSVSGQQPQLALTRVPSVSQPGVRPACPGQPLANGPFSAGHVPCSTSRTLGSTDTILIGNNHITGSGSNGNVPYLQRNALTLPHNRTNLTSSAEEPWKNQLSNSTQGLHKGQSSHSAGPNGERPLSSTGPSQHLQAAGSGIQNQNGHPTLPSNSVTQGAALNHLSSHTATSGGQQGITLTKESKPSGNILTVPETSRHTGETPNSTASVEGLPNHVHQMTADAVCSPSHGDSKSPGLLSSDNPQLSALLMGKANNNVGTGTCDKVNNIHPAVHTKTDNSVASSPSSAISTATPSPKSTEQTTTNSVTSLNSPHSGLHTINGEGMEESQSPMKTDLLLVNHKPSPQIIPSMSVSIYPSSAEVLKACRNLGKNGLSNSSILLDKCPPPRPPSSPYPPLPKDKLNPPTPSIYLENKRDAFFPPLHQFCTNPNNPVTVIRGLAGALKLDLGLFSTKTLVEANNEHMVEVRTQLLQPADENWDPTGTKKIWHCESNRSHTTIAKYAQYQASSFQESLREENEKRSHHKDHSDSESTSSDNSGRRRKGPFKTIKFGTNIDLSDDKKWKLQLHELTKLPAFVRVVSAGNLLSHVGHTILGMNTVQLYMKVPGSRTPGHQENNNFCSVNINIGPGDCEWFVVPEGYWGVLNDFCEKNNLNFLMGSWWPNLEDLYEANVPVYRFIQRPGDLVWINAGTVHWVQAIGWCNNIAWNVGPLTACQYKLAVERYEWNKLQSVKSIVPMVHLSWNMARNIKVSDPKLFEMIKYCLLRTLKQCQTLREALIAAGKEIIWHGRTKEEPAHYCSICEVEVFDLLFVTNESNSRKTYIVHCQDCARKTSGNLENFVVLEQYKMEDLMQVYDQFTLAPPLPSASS

Tests used:
KDM6A (UTX) = KDM6A (UTX) (Homo sapiens, UniProt O15550); experiment: KDM cell-free assay (AlphaScreen, BPS Bioscience); format: biochemical; details: at 10 μM
T47D tumors = experiment: Mouse xenograft assay, T47D (ER(+)); format: in vivo

Row | SMILES | reduction in the enzyme activity (KDM6A) (KDM6A (UTX)) [%] | tumor volume (T47D tumors; 25 mg/kg for 8 weeks, control 4426 mm^3) [mm^3] | reduction in the growth of tumors relative to control (T47D tumors; athymic nude mice, 25 mg/kg body weight for 8 weeks)
1 | Cc1c(O)c(=O)ccn1C [DFP, Deferiprone] | > 95 |  | 
2 | COc1cccc(-c2cn(CCCCCn3ccc(=O)c(O)c3C)nn2)c1 [2j] |  | 884 | approx. 81%
